# Data from US20240316042A1 (AbbVie Inc., priority 2023, published 2024).
# Columns and labels:
# [1] = system: pediatric patients with pcJIA; assay: Phase 1 open-label study in pediatric pcJIA patients: efficacy (JIA ACR, JADAS-27, C-HAQ);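 note: values come from an interim analysis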
# [2] = system: pediatric subjects with severe atopic dermatitis; assay: Phase 1 open-label study in pediatric subjects with severe atopic dermatitis: efficacy (vIGA-AD, EASI); assay type: in vivo, human
structure (smiles),measurement,setting,value
"CC[C@@H]1CN(C(=O)NCC(F)(F)F)C[C@@H]1c1cnc2cnc3[nH]ccc3n12 [upadacitinib, (3S,4R)-3-ethyl-4-(3H-imidazo[1,2-a]pyrrolo[2,3-e]pyrazin-8-yl)-N-(2,2,2-trifluoroethyl)pyrrolidine-1-carboxamide]","CRP, Change from Baseline Median (Min, Max)","[1]; Week 12, Overall","−0.390 (−77.05, 17.20)"
same,"ESR, Change from Baseline Mean ([…]% CI)","[1]; Week 12, Overall","−7.3 (−11.7, −2.9)"
same,"Total Number of Active Joints, Change from Baseline Mean ([…]% CI)","[1]; Week 12, Overall","−9.4 (−10.9, −7.8)"
same,"Total Number of Active Joints, Change from Baseline Mean ([…]% CI)","[1]; Week 12, age 2 to <6 years","−7.0 (−8.8, −5.2)"
same,"CRP, Change from Baseline Median (Min, Max)","[1]; Week 12, age 6 to <12 years","−0.820 (−16.70, 5.50)"
same,"ESR, Change from Baseline Mean ([…]% CI)","[1]; Week 12, age 6 to <12 years","−9.9 (−17.3, −2.5)"
same,"CRP, Change from Baseline Median (Min, Max)","[1]; Week 12, age 12 to <18 years","−0.150 (−16.49, 17.20)"
same,"ESR, Change from Baseline Mean ([…]% CI)","[1]; Week 12, age 12 to <18 years","−0.3 (−5.8, 5.3)"
same,"Patient/Parent Global Assessment of Overall Well Being (VAS), Change from Baseline Mean ([…]% CI)","[1]; Week 12, age 12 to <18 years","−19.6 (−28.3, −10.8)"
same,EASI 75 response,"[2]; Week 12, 7 subjects of Cohorts 3 and 4 on revised dosing scheme from study entry",all subjects achieved an EASI 75 response
same,"Percent Change in EASI, Mean","[2]; Week 12, Age 2 to <6 years",−82.0%
same,"Change in EASI, Mean","[2]; Week 12, Age 6 to <12 years",−25.0
same,"Percent Change in EASI, Mean","[2]; Week 12, Age 6 to <12 years",−78.0%
